Sequences of proteins named here, by UniProt entry; tags and fusion partners are left off. A change or cut given only in a name is not applied to a line headed by its entry.
UniProt Q13043: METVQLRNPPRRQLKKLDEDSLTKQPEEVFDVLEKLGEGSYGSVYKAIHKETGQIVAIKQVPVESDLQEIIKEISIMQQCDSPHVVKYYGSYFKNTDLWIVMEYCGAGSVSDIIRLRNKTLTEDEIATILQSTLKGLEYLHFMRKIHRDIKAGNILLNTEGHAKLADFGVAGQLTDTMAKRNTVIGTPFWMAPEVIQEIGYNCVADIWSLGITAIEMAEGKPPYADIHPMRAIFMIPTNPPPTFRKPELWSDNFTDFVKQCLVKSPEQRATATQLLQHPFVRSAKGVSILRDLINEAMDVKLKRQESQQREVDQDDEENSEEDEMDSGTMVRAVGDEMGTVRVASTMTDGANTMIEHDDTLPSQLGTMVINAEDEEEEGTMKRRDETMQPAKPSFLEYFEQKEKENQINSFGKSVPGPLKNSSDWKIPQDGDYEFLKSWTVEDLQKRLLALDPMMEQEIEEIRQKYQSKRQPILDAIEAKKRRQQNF

According to US20250051337A1 (priority 2021, published 2025):

Assays:
STK4 [1] = molecular target: T1, STK4 (Homo sapiens (Human), UniProt Q13043); assay: ADP-Glo kinase assay, STK4; assay type: biochemical; details: 50 μM ATP
Protocol: The STK3 kinase assay was performed in 5 μL reaction buffer containing 50 ng recombinant human STK3 protein (full length, SignalChem #S24-10G; Richmond, Canada), 250 μg/mL myelin basic protein (Sigma-Aldrich #M1891; St. Louis, MO, USA), and 50 μM ATP (Sigma-Aldrich #A7699). The STK4 kinase assay was performed in 5 μL reaction buffer containing 50 ng recombinant human STK4 protein (full length, SignalChem #S25-10G), 300 μg/mL Axltide (SignalChem #A16-58), and 50 μM ATP. […] Three experiments were performed, each in triplicate.

STK4 [2] = molecular target: T1, STK4; assay: NanoBRET intracellular kinase assay, STK4; assay type: cell-based; details: transfected HEK293 cells, 2 h
Protocol: Full-length STK3, STK4, and LRRK2 kinase was cloned in-frame with a C-terminal NanoLuc-fusion (Promega: Madison, WI, USA) and the plasmid was transfected into HEK293T cells using FuGENE HD (Promega, E2312). […] After 2 h at 37° C. in a 5% CO2 atmosphere, NanoBRET NanoGlo Substrate+Extra-cellular NanoLuc Inhibitor (Promega, N2540) was added, and filtered luminescence was measured on a PHERAstar plate reader (BMG Labtech; Ortenberg, Germany) equipped with a lumi-nescence filter pair (450 nm BP filter (donor) and 610 nm LP filter (acceptor)).
This assay measured the apparent affinity of test compounds by competitive displacement of the NanoBRET™ tracer, reversibly bound to a NanoLuc® luciferase-kinase fusion in cells. To evaluate potential off-target activity of the inhibitors, the inhibition of LRRK2 in live cells by the STK3/4 inhibitors compounds described herein were measured. […] A 50 nM tracer and these compounds were added to cells and incubated for 2 h.

STK4 [3] = molecular target: T1, STK4; assay: PhosphoSens CSox-based Sensor Assay, STK4; assay type: biochemical; details: Km ATP, mean n = 2
Protocol: Materials were obtained and prepared according to the assay manufacturer's protocol (Assay Quant Technologies: Marlborough, MA, USA). The 50 μL reaction was initiated by addition of a master mix containing the compounds or vehicle, kinase, and CSox-peptide substrate to a well containing the remaining components. […] Final concentrations were: […] HEPES pH 7.5, 50 μM ATP, 1.0 mM DTT, 0.01% Brij-35, 0.5 mM EGTA, 10 mM MgCl2, 10 μM peptide substrate (AQT0135), and 5.0 nM STK3 (SignalChem #S24-10G) or STK4 (SignalChem #S25-10G) kinases. […] Background-corrected RFU were plotted against time using Prism 8 software. Velocity determinations were calculated for each reaction and plotted versus compound concentration to generate inhibitor curves.
The PhosphoSens® CSox-based Sensor real-time kinetic assay uses a peptide substrate containing an unnatural amino acid and physiological Mg^2+ levels to quantify substrate phosphorylation using fluorescence.

With Fc1ccccc1-c1c[nH]c2ncnc(N3CCOCC3)c12 [Compound 3, 4-(5-(2-Fluorophenyl)-7H-pyrrolo[2,3-d]pyrimidin-4-yl)morpholine] as the compound, how does the IC50 (STK4 [1]) read?
The IC50 was less than 1000 nM.

COc1ccccc1-c1c[nH]c2ncnc(N3CCOCC3)c12 [Compound 4, 4-(5-(2-Methoxyphenyl)-7H-pyrrolo[2,3-d]pyrimidin-4-yl)morpholine] was tested. Which IC50 (STK4 [1]) did it give?
The IC50 was less than 1000 nM.

Which results are given for Cc1cccc(-c2c[nH]c3ncnc(N4CCOCC4)c23)c1 [Compound 5, 4-(5-(m-Tolyl)-7H-pyrrolo[2,3-d]pyrimidin-4-yl)morpholine]?
IC50 (STK4 [2]): < 1000 nM; IC50 (STK4 [1]): < 1000 nM

For Fc1cccc(-c2c[nH]c3ncnc(N4CCOCC4)c23)c1 [Compound 7, 4-(5-(3-Fluorophenyl)-7H-pyrrolo[2,3-d]pyrimidin-4-yl)morpholine], which IC50 (STK4 [2]) is on record?
The IC50 was less than 1000 nM.

What about the IC50 (STK4 [1]) of the same compound?
Its IC50 is less than 1000 nM.

How did the IC50 (STK4 [1]) turn out when COc1cccc(-c2c[nH]c3ncnc(N4CCOCC4)c23)c1 [Compound 8, 4-(5-(3-Methoxyphenyl)-7H-pyrrolo[2,3-d]pyrimidin-4-yl)morpholine] was run?
The IC50 was less than 1000 nM.

For Cc1ccc(-c2c[nH]c3ncnc(N4CCOCC4)c23)cc1 [Compound 9, 4-(5-(p-tolyl)-7H-pyrrolo[2,3-d]pyrimidin-4-yl)morpholine], which IC50 (STK4 [1]) is on record?
Its IC50 is less than 1000 nM.

With Fc1ccc(-c2c[nH]c3ncnc(N4CCOCC4)c23)cc1 [Compound 10, 4-(5-(4-Fluorophenyl)-7H-pyrrolo[2,3-d]pyrimidin-4-yl)morpholine] as the compound, how does the IC50 (STK4 [1]) read?
Its IC50 is less than 1000 nM.

For NC(=O)c1cccc(-c2c[nH]c3ncnc(N4CCOCC4)c23)c1 [Compound 11, 3-(4-Morpholino-7H-pyrrolo[2,3-d]pyrimidin-5-yl)benzamide], which IC50 (STK4 [2]) is on record?
The IC50 was less than 1000 nM.

What about the IC50 (STK4 [1]) of the same compound?
The IC50 was less than 1000 nM.

What about the Ki (STK4 [3]) of the same compound?
Its Ki is 91 nM.

c1csc(-c2c[nH]c3ncnc(N4CCOCC4)c23)c1 [Compound 12, 4-(5-(Thiophen-2-yl)-7H-pyrrolo[2,3-d]pyrimidin-4-yl)morpholine] was tested. Which IC50 (STK4 [1]) did it give?
The IC50 was less than 1000 nM.

For c1coc(-c2c[nH]c3ncnc(N4CCOCC4)c23)c1 [Compound 13, 4-(5-(Furan-2-yl)-7H-pyrrolo[2,3-d]pyrimidin-4-yl)morpholine], which IC50 (STK4 [1]) is on record?
Its IC50 is less than 1000 nM.

How did the IC50 (STK4 [1]) turn out when c1nc(N2CCOCC2)c2c(-c3ccoc3)c[nH]c2n1 [Compound 14, 4-(5-(Furan-3-yl)-7H-pyrrolo[2,3-d]pyrimidin-4-yl)morpholine] was run?
The IC50 was less than 1000 nM.

Which results are given for Clc1cccc(-c2c[nH]c3ncnc(N4CCCCC4)c23)c1 [Compound 15, 5-(3-Chlorophenyl)-4-(piperidin-1-yl)-7H-pyrrolo[2,3-d]pyrimidine]?
IC50 (STK4 [2]): < 1000 nM; IC50 (STK4 [1]): < 1000 nM

CN(C)c1ncnc2[nH]cc(-c3cccc(Cl)c3)c12 [Compound 17, 5-(3-Chlorophenyl)-N,N-dimethyl-7H-pyrrolo[2,3-d]pyrimidin-4-amine] was tested. Which IC50 (STK4 [1]) did it give?
Its IC50 is less than 1000 nM.

How did the IC50 (STK4 [1]) turn out when Clc1cccc(-c2c[nH]c3ncnc(NCC4CC4)c23)c1 [Compound 18, 5-(3-Chlorophenyl)-N-(cyclopropylmethyl)-7H-pyrrolo[2,3-d]pyrimidin-4-amine] was run?
Its IC50 is less than 1000 nM.

For CC1(N)CCN(c2ncnc3[nH]cc(-c4cccc(Cl)c4)c23)CC1 [Compound 102, 1-(5-(3-chlorophenyl)-7H-pyrrolo[2,3-d]pyrimidin-4-yl)-4-methylpiperidin-4-amine], which IC50 (STK4 [1]) is on record?
The IC50 was less than 1000 nM.

For CC1(O)CCN(c2ncnc3[nH]cc(-c4cccc(Cl)c4)c23)CC1 [Compound 103, 1-(5-(3-chlorophenyl)-7H-pyrrolo[2,3-d]pyrimidin-4-yl)-4-methylpiperidin-4-ol], which IC50 (STK4 [1]) is on record?
Its IC50 is less than 1000 nM.

With CCN(CCO)c1ncnc2[nH]cc(-c3cccc(Cl)c3)c12 [Compound 114, 2-((5-(3-chlorophenyl)-7H-pyrrolo[2,3-d]pyrimidin-4-yl)(ethyl)amino)ethan-1-ol] as the compound, how does the IC50 (STK4 [1]) read?
Its IC50 is less than 1000 nM.

Which IC50 (STK4 [2]) does the source give for OCCCNc1ncnc2[nH]cc(-c3cccc(Cl)c3)c12 [Compound 119, 3-((5-(3-chlorophenyl)-7H-pyrrolo[2,3-d]pyrimidin-4-yl)amino)propan-1-ol] here?
Its IC50 is less than 1000 nM.

And the IC50 (STK4 [1])?
Its IC50 is less than 1000 nM.
